Measurements from patent publication US8697403B2, “Process and microorganisms for production of lipids from lignocellulosic wastes or residues” (Neste Oil Oyj, priority 2010, dated 2014).

System: S. milbemycinius GAL4211
Assay: NTG mutagenesis of spore suspension, killing rate
Details: 10^7 spores/ml; NTG 1-3 mg/ml, pH buffers of 7-9, +30° C., 0.5-1 h

## CN(N=O)C(=N)N[N+](=O)[O-]
  Killing rates: 90-100%
